# A selection: hits, their analogues and other compounds. The true share with any hit is near 1.8%.
# Yeast UUG start: alters start codon recognition fidelity in yeast. S. cerevisiae UUG-firefly luciferase reporter, luminescence/redox ratio. AID 602363. activity score, % at 18.7 µM. hit rate 0.13% among 350,000;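 active = replicate mean at a twofold rise or more, about +100% in these data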;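 note: firefly luciferase made from a UUG start codon reports start codon fidelity; reporter light over untreated wells divided by growth signal over untreated wells; some hits fall short of that in this replicate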
# DENV2 CPE rescue: inhibitors of DENV2 cytopathic effect; CPE inhibition, % at 9.99 µM; AID 651640; DENV2-infected cells, cytopathic effect rescue, plate reader; 1.7% of 350,000 active; in the data active means CPE inhibition above about 20%, passing the limit was not always enough; inconclusive means no clear call, values can overlap the other calls; tested in BHK-21 cells;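 further: 0% = median of neutral control wells and 100% = median of positive control wells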
# Cneo AK release: Cryptococcus neoformans lysis via adenylate kinase release. C. neoformans lysis, adenylate kinase release luminescence, 4 h; normalised: neutral wells 0, clomiphene wells 100. lysis activity, % at 15 µM. 0.2% of 360,000 active;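 active means mean lysis activity across replicates of at least 80%, whatever share of replicates individually reach that level; inactive means mean lysis activity below 80%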
#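 Schedule: static 4 h at 37 °C with compound, 1 h detection; system: C. neoformans cells; benchmarks: Clomiphene as positive control; buffer or medium: fresh YPD medium; measure: luminescence rise reflecting yeast cell lysis; measured by: luminescent adenylate kinase detection reagent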
# E-selectin induc: E-selectin induction on HUVECs; P16581; HUVEC E-selectin immunofluorescence imaging; normalized: neutral wells 0, TNF-alpha wells 100; activation, % at 7.58 µM; 0.37% of 260,000 active; AID 686992;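 active means mean E-selectin-positive cell signal at least 10% of the positive control, reached in at least 60% of replicates, without over 20% cell loss; inconclusive means no rule given, readout overlaps actives, possibly toxicity-flagged; inactive means the rest, including those meeting only one limit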
#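 Assay system: HUVEC, human umbilical vein endothelial cells / Amount: 3,000 HUVEC/well / Controls: TNF-alpha positive control, DMSO neutral control / Compound dosing: single concentration / Medium: EGM-2 over gelatin coat / Evaluation: percent E-selectin-positive cells / Signal: immunofluorescence imaging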
# * hit, by the source's call; ? = inconclusive; nt = not tested or not shown; ! = not active in a repeat.
item | structure | Yeast UUG start | DENV2 CPE rescue | Cneo AK release | E-selectin induc
1 | COc1ccc(Cl)cc1NC(=O)C1COc2ccccc2O1 (stereo not given) | nt | -4.8 | nt | nt
2 | C[C@@H]1CN([C@H](C)CO)C(=O)c2cc(NC(=O)C3CCCCC3)ccc2O[C@@H](C)CCCCO[C@@H]1CN(C)C(=O)NC1CCCCC1 | 2.7 | -0.6 | 0.0 | 0.4
3 | Cc1ccc(C(=O)Nc2ccc(CN3CCCCC3)cc2)c(C)c1 | nt | 34.8* | nt | nt
4 | O=C(NCCCCNC(=O)c1cccnc1Cl)c1cccnc1Cl | -10.5 | 68.7* | 5.2 | -4.2
5 | O=C(NCC1CCCCC1)c1cccnc1Cl | -5.5 | 12.2 | 2.8 | nt
6 | COc1ccc(NC(=O)N(C)C[C@H]2Oc3c(NS(=O)(=O)c4ccc(OC)cc4)cccc3C(=O)N([C@H](C)CO)C[C@@H]2C)cc1 | 6.8 | 28.2*! | -0.1 | -0.1
7 | COc1ccc(NC(=O)N(C)C[C@@H]2Oc3c(NS(=O)(=O)c4ccc(OC)cc4)cccc3C(=O)N([C@@H](C)CO)C[C@@H]2C)cc1 | -1.4 | 6.8 | 4.4 | 0.0
8 | COc1ccc(NC(=O)N(C)C[C@H]2Oc3c(NS(=O)(=O)c4ccc(Cl)cc4)cccc3C(=O)N([C@@H](C)CO)C[C@H]2C)cc1 | -8.8 | ? | -2.5 | -0.1
9 | COc1ccc(NC(=O)N(C)C[C@H]2Oc3c(NS(=O)(=O)c4ccc(Cl)cc4)cccc3C(=O)N([C@H](C)CO)C[C@H]2C)cc1 | -1.4 | 48.8* | -1.7 | 0.0
10 | C[C@H]1CN([C@@H](C)CO)C(=O)c2cccc(NS(=O)(=O)c3ccc(Cl)cc3)c2O[C@H]1CN(C)C(=O)Nc1ccccc1 | 8.2 | 39.5* | -0.2 | -0.6
11 | C[C@@H]1CCCCO[C@@H](CN(C)C(=O)Nc2ccccc2)[C@@H](C)CN([C@@H](C)CO)C(=O)c2cc(NC(=O)NC3CCCCC3)ccc2O1 | -5.8 | 3.3 | -1.5 | nt
12 | COc1cccc(CN(C)C[C@H]2OCc3cn(nn3)CCCC(=O)N([C@@H](C)CO)C[C@@H]2C)c1 | -16.2 | -0.7 | 5.9 | 0.5
13 | CN(C[C@H]1N[C@@H](CO)[C@H]1c1ccc(-c2cccc(F)c2)cc1)S(C)(=O)=O | 17.4 | -10.9 | 98.9* | 0.0
14 | CN(C[C@@H]1N[C@H](CO)[C@@H]1c1ccc(-c2cccc(F)c2)cc1)S(C)(=O)=O | -7.3 | 7.1 | -0.1 | -0.1
15 | CN(C[C@H]1N[C@@H](CO)[C@H]1c1ccc(-c2cccc(F)c2)cc1)C(=O)C1CCC1 | -16.1 | -4.7 | 2.6 | 0.0

item | structure | Yeast UUG start | DENV2 CPE rescue | Cneo AK release | E-selectin induc
16 | CN(C[C@H]1N[C@@H](CO)[C@H]1c1ccc(-c2cccc(F)c2)cc1)C(=O)CC1CC1 | -7.6 | 20.2* | -2.3 | -0.3
17 | CO[C@H]1CN(C)C(=O)c2cc(NS(C)(=O)=O)ccc2OC[C@H](C)N(CC2CC2)C[C@H]1C | -22.8 | -1.8 | 1.7 | -0.1
18 | O=C(C[C@@H]1C[C@@H]2c3cc(NC(=O)CC4CC4)ccc3O[C@@H]2[C@@H](CO)O1)NCc1ccc2c(c1)OCO2 | 1.5 | 5.2 | 64.7 | -0.4
19 | CC(C)NC(=O)N(C)C[C@H]1Oc2ncc(-c3cncnc3)cc2C(=O)N([C@@H](C)CO)C[C@@H]1C | -13.1 | -4.0 | 4.2 | -0.1
20 | C[C@H](CO)N1C[C@H](C)[C@@H](CN(C)C(=O)Cc2ccccc2)OCCCC[C@H](C)Oc2ccc(NS(=O)(=O)c3ccc(F)cc3)cc2C1=O | -5.0 | 126.1* | -3.0 | 0.5
21 | C[C@@H]1CCCCO[C@H](CN(C)C(=O)Cc2ccccc2)[C@H](C)CN([C@H](C)CO)C(=O)c2cc(NS(=O)(=O)c3ccc(F)cc3)ccc2O1 | 0.4 | 27.6* | 2.9 | 0.5
22 | COCC(=O)N(C)C[C@H]1Oc2ncc(C#CC3(O)CCCC3)cc2C(=O)N([C@@H](C)CO)C[C@H]1C | 34.9 | -2.5 | 0.7 | 2.3
23 | COc1ccc(CN2CC3(C2)CN(Cc2ccc4c(c2)OCO4)[C@@H](CO)c2[nH]c4cc(OC)ccc4c23)cc1 | nt | -35.5 | nt | -0.5
24 | C[C@@H]1CN([C@@H](C)CO)C(=O)c2cc(NC(=O)CCCN(C)C)ccc2O[C@@H](C)CCCCO[C@H]1CN(C)Cc1ccncc1 | -9.1 | -3.8 | -2.8 | 0.7
25 | COc1ccc(-c2c(-c3cc(OC)cc(OC)c3)n(C)c3ccc(Br)cc23)cc1 | -10.8 | 31.9* | 0.6 | 0.2
26 | COc1cccc(-c2c(-c3cc(OC)cc(OC)c3)n(C)c3ccc(Br)cc23)c1 | -16.6 | 5.8 | -0.6 | 1.2
27 | C[C@@H]1CN([C@H](C)CO)C(=O)c2cccc(NC(=O)c3ccncc3)c2O[C@H]1CN(C)C(=O)Nc1ccc(C(F)(F)F)cc1 | 12.0 | -7.7 | 81.7* | 0.2
28 | C[C@H](CO)N1C[C@H](C)[C@H](CN(C)C(=O)Nc2ccccc2)Oc2c(NC(=O)c3ccncc3)cccc2C1=O | -8.1 | -0.1 | 1.0 | -0.1
29 | C[C@@H]1CN([C@@H](C)CO)C(=O)c2cccc(NC(=O)c3ccncc3)c2O[C@H]1CN(C)C(=O)Nc1ccccc1 | 11.9 | 17.8 | 108.6* | 0.4
30 | Cc1cc(C(=O)Nc2cccc3c2O[C@H](CN(C)C(=O)Nc2ccc(C(F)(F)F)cc2)[C@@H](C)CN([C@H](C)CO)C3=O)n(C)n1 | -2.4 | 38.3* | 5.5 | -2.7

# Single records (already shown). Values in the order: Yeast UUG start | DENV2 CPE rescue | Cneo AK release | E-selectin induc
# Record of `CN(C[C@H]1N[C@@H](CO)[C@H]1c1ccc(-c2cccc(F)c2)cc1)C(=O)CC1CC1` : -7.6 | 20.2* | -2.3 | -0.3
# Record of `CC(C)NC(=O)N(C)C[C@H]1Oc2ncc(-c3cncnc3)cc2C(=O)N([C@@H](C)CO)C[C@@H]1C` : -13.1 | -4.0 | 4.2 | -0.1
# Record of `O=C(C[C@@H]1C[C@@H]2c3cc(NC(=O)CC4CC4)ccc3O[C@@H]2[C@@H](CO)O1)NCc1ccc2c(c1)OCO2` : 1.5 | 5.2 | 64.7 | -0.4
# Record of `C[C@@H]1CN([C@@H](C)CO)C(=O)c2cccc(NC(=O)c3ccncc3)c2O[C@H]1CN(C)C(=O)Nc1ccccc1` : 11.9 | 17.8 | 108.6* | 0.4

# (more compounds)
item | structure | Yeast UUG start | DENV2 CPE rescue | Cneo AK release | E-selectin induc
31 | C[C@@H]1CN([C@H](C)CO)C(=O)c2cccc(NC(=O)c3ccncc3)c2O[C@H]1CN(C)C(=O)Nc1ccccc1 | 13.2 | ? | 103.6* | 0.3
32 | C[C@@H]1CN([C@H](C)CO)C(=O)c2cccc(NC(=O)c3ccncc3)c2O[C@@H]1CN(C)C(=O)Nc1ccc(F)cc1 | -11.4 | -2.2 | 0.5 | -0.1
33 | C[C@H]1CN([C@@H](C)CO)C(=O)c2cccc(NS(=O)(=O)c3ccc(Cl)cc3)c2O[C@H]1CN(C)CC1CCCCC1 | 2.8 | -2.6 | 0.9 | -2.2
34 | O=C(Nc1ccc2c(c1)[C@@H]1C[C@H](CC(=O)N3CCCCC3)O[C@H](CO)[C@@H]1O2)Nc1ccccc1F | nt | nt | nt | 0.2
35 | COc1ccc(NC(=O)N(C)C[C@@H]2Oc3c(NS(=O)(=O)c4ccc(F)cc4)cccc3C(=O)N([C@@H](C)CO)C[C@@H]2C)cc1 | -6.5 | -1.7 | 0.9 | -0.5
36 | CNC[C@H]1Oc2c(NC(=O)c3ccncc3)cccc2C(=O)N([C@@H](C)CO)C[C@H]1C | 18.4 | 38.5* | 40.6 | 0.0
37 | C[C@H](c1ccccc1)N1C[C@@H](COCc2ccccc2)Oc2cccc(Oc3ccc(C(C)(C)C)cc3)c2S1(=O)=O | nt | 85.0* | nt | 0.0
38 | CCc1cnc(N2[C@H](CO)[C@H](c3ccc(C4=CCCCC4)cc3)[C@@H]2C#N)s1 | nt | 28.8* | -2.8 | 1.0
39 | CCc1cnc(N2[C@@H](C#N)[C@H](c3ccc(C4=CCCCC4)cc3)[C@@H]2CO)s1 | nt | -0.4 | -3.6 | -0.2
40 | CCc1cnc(N2[C@H](C#N)[C@@H](c3ccccc3)[C@@H]2CO)s1 | 20.7 | 1.8 | -0.8 | 3.4
41 | CCc1cnc(N2[C@@H](C#N)[C@@H](c3ccccc3)[C@@H]2CO)s1 | 4.8 | 49.5* | 0.2 | 1.0
42 | CCCNC(=O)C[C@@H]1CC[C@H]2[C@@H](COC[C@H](O)CN2C(=O)C2CCOCC2)O1 | -10.4 | 13.5 | -1.7 | -0.1
43 | O=C(C[C@H]1C[C@H]2c3cc(NS(=O)(=O)c4ccc(F)cc4)ccc3O[C@H]2[C@H](CO)O1)NCC1CC1 | -9.0 | -3.4 | -0.9 | 0.0

# Screening results (PubChem BioAssay)
